US10889563B2, “Deoxyuridine triphosphatase inhibitors” (University of Southern California, priority 2013, dated 2021)

Assays:
H1299 cells = experiment: MTS growth inhibition assay, H1299; conditions: H1299, 72 hours, up to 12.5 μmol/L
HCT116 cells = experiment: Colony formation assay, HCT116; format: cell-based
Description: Colony forming assay showing the ability of colon (SW620, HCT 116), non-small cell lung (A549, H460, H1299 and H358) and breast (MCF7) cancer cells to survive and proliferate following transient 24 hour exposure to single agent PCI 1013, FUdR and combinations. Specifically, cells were seeded at densities between 50 and 100 cells/well in 24-well plates. Twenty-four hours later, cells were treated with increasing concentrations of PCI 10213, a fixed dose of FUdR and combinations of these. After 24 hours, drug was removed, cells were rinsed and allowed to outgrow for 10-14 days. At the conclusion of the outgrowth, cells were fixed in 60% ice cold methanol and stained with 0.1% crystal violet, scanned and counted. Data is presented as percentage of untreated controls (mean±SD). Fraction affected and combination indexes were calculated according to the method of Chou and Talalay where <1 is indicative of a synergistic drug interaction. […]
In colorectal cancer cells, concentrations of PCI 10213 ranging from 3.1 μmol/L to 50 μmol/L were combined with 0.5 μmol/L FUdR in HCT116 cells and 1 μmol/L FUdR in SW620 cells.

Row | SMILES | single agent activity (H1299 cells) | colonies formed, combination with FUdR (HCT116 cells; HCT116, 0.78 to 12.5 μmol/L compound plus fixed 0.5 μmol/L FUdR (Example 23)) | number of colonies formed, compound alone (HCT116 cells; HCT116, 0.78 to 12.5 μmol/L single agent (Example 23))
1 | C[C@@H](NS(=O)(=O)CC/C=C/CC1CCC(=O)NC1=O)c1cccc(OCC2CC2)c1 (mixture of isomers) [PCI 10213] | modest single agent activity | significant reductions in colonies formed when combined with FUdR at concentrations of 6.25 μmol/L and greater | no significant effects on the number of colonies formed
2 | C[C@@H](NS(=O)(=O)CC/C=C/Cn1ccc(=O)[nH]c1=O)c1cccc(OCC2CC2)c1 [PCI 10216, reference compound] | modest single agent activity |  | 
3 | C[C@@H](NS(=O)(=O)CC/C=C/CC1SC(=O)NC1=O)c1cccc(OCC2CC2)c1 (some centres unmarked) [PCI 10214] | modest single agent activity |  | 
